Data reported in US20250179032A1, “HETEROCYCLIC INHIBITORS OF GLUT9 FOR TREATMENT OF DISEASE” (HORIZON THERAPEUTICS IRELAND DAC, priority 2022, published 2025).
Where two headings read alike, the source gives them in different places.

Protein sequences, listed by entry. Tags and fused reporters are not part of them. Residues count along the entry.
UniProt Q9NRM0, 1-511 isoform 2: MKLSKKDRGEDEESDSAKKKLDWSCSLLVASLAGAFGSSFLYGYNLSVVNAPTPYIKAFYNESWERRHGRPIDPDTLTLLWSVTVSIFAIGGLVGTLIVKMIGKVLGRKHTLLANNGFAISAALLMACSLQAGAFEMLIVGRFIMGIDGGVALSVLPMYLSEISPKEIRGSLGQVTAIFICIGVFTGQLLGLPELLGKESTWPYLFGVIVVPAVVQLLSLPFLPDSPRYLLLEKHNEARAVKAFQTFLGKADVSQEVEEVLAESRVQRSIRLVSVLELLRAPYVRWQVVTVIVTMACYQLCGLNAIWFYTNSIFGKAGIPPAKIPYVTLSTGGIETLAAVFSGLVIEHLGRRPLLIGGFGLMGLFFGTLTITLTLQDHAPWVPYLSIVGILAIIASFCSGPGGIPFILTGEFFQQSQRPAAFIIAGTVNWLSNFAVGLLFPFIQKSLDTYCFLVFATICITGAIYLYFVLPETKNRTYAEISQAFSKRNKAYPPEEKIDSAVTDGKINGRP

Molecular target: H. sapiens SLC2A9 variant 2 (GLUT9B) (Homo sapiens, UniProt Q9NRM0)
Experiment: GLUT9 functional assay: uric acid uptake in HEK293T cells, allantoin formation by MS/MS as proxy of GLUT9B inhibition
Details: HEK293T cells stably expressing GLUT9B and transiently A. oryzae uricase, uric acid 0.3 mM, 37° C.
Protocol: Uric acid stocks (9 mM, Millipore-Sigma, U0881) were generated in 125 mM choline chloride (Millipore-Sigma, C7017) and the concentration was determined at 293 nm using a molar extinction coefficient of 9600 M- ^1 cm- ^1) after collecting the absorbance spectra from 220-350 nm. Allantoin stocks (12 mM Toronto Research Chemicals, A540500) were generated in LCMS grade water (Thermo Scientific, 51140). The concentration of allantoin was determined by qNMR (Michigan State University). HEK293T cells were purchased from ATCC (HEK 293T/17 SF). Hanks buffered saline salts (HBSS) was purchased from Millipore-Sigma (H6648-1L). […]
Uric acid uptake was measured in HEK293T cells stably expressing H. sapiens SLC2A9 variant 2 (GLUT9B) and transiently expressing A. oryzae uricase. […] Allantoin was detected in positive ion mode. Desired analyte concentrations were quantitated by integrating the area under the curve followed by a log-logistic regression model and data compared to a standard curve prepared in a matching HEK293T biological matrix.
Mass spectrometry measurement of allantoin was completed using an Agilent RapidFire 300 coupled to a Sciex API 4000 mass spectrometer. […] Allantoin was detected in positive ion mode with the following compound ID settings: Q1 159, Q3 115.8, DP 57, CE 12.5 Dwell 100 ms. […]

SMILES | IC50 (read-out: 15 min IC50, 15 minute assay) [nM] | IC50 (read-out: 60 min IC50, 60 minute assay) [nM]
CCCCCc1cnc(-c2ccc(OCCOC)cc2)c(N2CCC(C(=O)O)CC2)n1 | < 500 | 
COCCCc1cnc(-c2cc(C)c3nc(C)cn3n2)c(N2CCC(C(=O)O)CC2)n1 |  | > 2000
